Data on two compounds can be found in ChEMBL document CHEMBL1126247, “Iodoaminopotentidine and related compounds: a new class of ligands with high affinity and selectivity for the histamine H2 receptor” (J Med Chem, 1992).

Chains of the proteins cited; added tags and fusions are not shown.
UniProt P47747, whole entry: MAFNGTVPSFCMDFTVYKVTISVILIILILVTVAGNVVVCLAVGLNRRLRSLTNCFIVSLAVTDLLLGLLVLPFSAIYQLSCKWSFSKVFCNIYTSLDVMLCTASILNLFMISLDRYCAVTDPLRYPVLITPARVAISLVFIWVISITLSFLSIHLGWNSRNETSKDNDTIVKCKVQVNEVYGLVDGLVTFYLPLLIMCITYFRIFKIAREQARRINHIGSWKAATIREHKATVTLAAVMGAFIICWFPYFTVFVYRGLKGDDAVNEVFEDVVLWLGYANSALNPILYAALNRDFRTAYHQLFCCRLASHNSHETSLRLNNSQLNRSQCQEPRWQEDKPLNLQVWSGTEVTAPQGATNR

Test [1] in a line: Inhibition of the positive chronotropic response (H2-antagonism) of guinea pig right atrium relative to cimetidine. In kind it is functional, Cavia porcellus, Cardiac atrium.
Test [2] concerns the target Histamine H2 receptor (Cavia porcellus, UniProt P47747). In words: Inhibition of [125I]APT binding to H2 receptors in guinea pig cerebral membranes. The format is cell membranes. Put shortly:
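Striatal membranes from male Hartley guinea pigs (200-300 g) in 50 mM sodium/potassium phosphate, pH 7.5, with 0.1% gelatin. Membranes incubated with 125I-APT 120 min at 25 °C, in triplicate. Stopped with cold buffer containing 0.1% BSA, then filtered on polyethylenimine-treated glass-fiber filters and γ-counted. Nonspecific binding defined with 1 μM tiotidine. Azido compounds handled under dim light.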

Broadly, the Ki is a measure of affinity in units of concentration, obtained from inhibition or displacement. A lower Ki goes with tighter binding. In test [1], `C/N=C(/NC#N)NCCSCc1csc(NC(=N)N)n1` [TIOTIDINE] came in with a Relative potency of 2512%. This compound also had a Ki in test [2] of 0.00562 µM.
As for `CN/C(=N/CCSCc1nc[nH]c1C)NC#N` [CIMETIDINE], the affinity in test [2] corresponds to a Ki of 0.302 µM.
